{"source": "patent US20050191735A1", "about": "“Oxidoreductase” (priority 2003, published 2005)", "test_system": "reduced nicotinamide adenine dinucleotide phosphate", "test": "purified protein, by the assay type", "settings": "other: potassium phosphate buffer pH=7.0, enzyme solution 1:300", "data": [{"substance": "recombinant L. reuteri oxidoreductase (Limosilactobacillus reuteri subsp. reuteri)", "values": [{"measurement": "Km", "value": "4 ± 1.8", "unit": "µM"}]}]}
